Test results: ChEMBL document CHEMBL3638462, “Pyridine and pyrimidine derivatives as phosphodiesterase 10 inhibitors” (2014)

The chains behind the UniProt entries cited, without tags or fusion partners. Where a name states a change or a piece, a line headed by the entry shows the natural chain unless it says otherwise.
UniProt Q9Y233: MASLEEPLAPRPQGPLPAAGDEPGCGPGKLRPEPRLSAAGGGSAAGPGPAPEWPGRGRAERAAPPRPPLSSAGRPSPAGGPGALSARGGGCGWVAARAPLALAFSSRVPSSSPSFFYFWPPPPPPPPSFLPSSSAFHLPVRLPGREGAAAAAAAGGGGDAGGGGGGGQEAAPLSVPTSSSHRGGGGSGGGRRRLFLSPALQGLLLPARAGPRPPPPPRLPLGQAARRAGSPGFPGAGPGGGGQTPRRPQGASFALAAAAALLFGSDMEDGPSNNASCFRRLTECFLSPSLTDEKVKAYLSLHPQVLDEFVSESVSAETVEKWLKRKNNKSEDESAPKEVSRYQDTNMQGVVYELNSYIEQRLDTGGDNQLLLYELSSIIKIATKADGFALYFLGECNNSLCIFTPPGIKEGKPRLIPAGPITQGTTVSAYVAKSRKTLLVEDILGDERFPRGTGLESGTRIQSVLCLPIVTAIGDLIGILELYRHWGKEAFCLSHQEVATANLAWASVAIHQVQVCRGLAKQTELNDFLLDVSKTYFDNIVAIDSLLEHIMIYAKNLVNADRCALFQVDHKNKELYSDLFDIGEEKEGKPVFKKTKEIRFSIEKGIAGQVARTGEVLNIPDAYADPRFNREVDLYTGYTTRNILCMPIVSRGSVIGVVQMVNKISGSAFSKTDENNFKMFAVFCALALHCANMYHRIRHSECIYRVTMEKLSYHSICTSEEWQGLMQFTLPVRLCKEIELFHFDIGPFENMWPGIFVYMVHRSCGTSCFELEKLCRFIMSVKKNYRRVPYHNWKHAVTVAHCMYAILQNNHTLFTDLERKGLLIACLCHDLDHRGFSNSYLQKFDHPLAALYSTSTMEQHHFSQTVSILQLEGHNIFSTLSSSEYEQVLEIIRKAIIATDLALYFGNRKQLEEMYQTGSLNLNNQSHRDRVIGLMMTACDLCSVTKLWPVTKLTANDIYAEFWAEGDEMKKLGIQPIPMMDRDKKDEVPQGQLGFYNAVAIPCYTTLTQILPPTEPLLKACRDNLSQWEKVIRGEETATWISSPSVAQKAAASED

Biological target: cAMP and cAMP-inhibited cGMP 3',5'-cyclic phosphodiesterase 10A (Homo sapiens, UniProt Q9Y233)
Experiment: Enzyme Inhibition Assay: To check the inhibition profile, 5 μL of serial diluted compounds were incubated with 5 μL of diluted PDE10 enzyme (BPS Bioscience, San Diego, Calif.) or tissue homogenate in a 384-well polystyrene assay plate (Corning, Corning, N.Y.) for 30 min at room temperature. After incubation, 10 μL of diluted fluorescein labeled cAMP or cGMP substrate were added and incubated for 60 min at room temperature. The reaction was stopped by adding 60 μL of diluted binding reagents and plates were read on an Envision (Perkin Elmer, Waltham, Mass.) for time resolved fluorescence resonance energy transfer. The data were analyzed with GraphPad Prism (La Jolla, Calif.).

Compound | IC50 [nM]
O=C(c1ccc(Oc2ncccc2C(=O)NCCBr)cc1)c1nc2ccccc2[nH]1 | 27.4
CC(=O)N1CCC[C@H](c2cccnc2Oc2ccc(C(=O)c3nc4ccccc4[nH]3)cc2)C1 | 0.0503
